Laboratory results as given in paper PMC5512577 (2016).

Target: phosphodiesterase 6 delta subunit (PDE6δ), N-terminal histidine-tagged (UniProt O43924)
Experiment: FP; mantGppNHp-loaded Arl; stopped-flow

B1: full-length Arl3, C-terminal histidine-tagged, bound to GppNHp or mantGppNHp (natural protein)
chain: MGLLSILRKLKSAPDQEVRILLLGLDNAGKTTLLKQLASEDISHITPTQGFNIKSVQSQGFKLNVWDIGGQRKIRPYWRSYFENTDILIYVIDSADRKRFEETGQELTELLEEEKLSCVPVLIFANKQDLLTAAPASEIAEGLNLHTIRDRVWQIQSCSALTGEGVQDGMNWVCKNVNAKKK
  koff: 0.035 s⁻¹
